2 substances from article PMC10504495, “Identification of SIRT3 as an eraser of H4K16la” (iScience, 2023) can be followed below.

Chains of the proteins cited; added tags and fusions are not shown. Residues count along the entry.
UniProt Q9NTG7, 118-399: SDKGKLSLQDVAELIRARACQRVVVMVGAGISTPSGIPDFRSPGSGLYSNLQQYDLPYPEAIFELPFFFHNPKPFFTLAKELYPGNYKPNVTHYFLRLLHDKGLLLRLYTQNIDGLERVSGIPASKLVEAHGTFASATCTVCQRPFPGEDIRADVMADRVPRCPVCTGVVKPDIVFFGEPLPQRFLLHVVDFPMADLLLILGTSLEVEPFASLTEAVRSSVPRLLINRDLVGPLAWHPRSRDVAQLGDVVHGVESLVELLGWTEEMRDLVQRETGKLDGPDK

Experiment [1] concerns the target human SIRT3 (118-399 aa) (human) (UniProt Q9NTG7). The experiment can be described thus: ITC; 40 μL of 2 mM lactyl peptide (needle) titrated in 20 injections into 200 μL of 30 μM Sirtuin (cell); 25°C; 20 μM Tris (so in the source) pH 7.5, 150 mM NaCl. For orientation: ITC needs no label: the signal is the heat of the interaction.
The target is the same in experiment [2].

H4K16la(D) peptide displayed a fold affinity against the lactylated L-lysine peptide in experiment [1] of 2 fold.

Consider H4K16la peptide, for which the KM of delactylation of the H4K16la peptide by SIRT3 (HPLC, Lineweaver-Burk; 200 nM SIRT3, 10-200 μM peptide, 37°C; the LC peptide carries added tryptophans at both ends) in experiment [2] was 143 µM.
